The list shows a part of the results, in another mix than the full data. Active and inactive are the calls of the source.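 The calls were made as follows: active = highest replicate inhibition of at least 50% and at least 75% of replicates reaching 50%; inconclusive = only one of the two criteria met; inactive = both criteria failed.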

Chains of the proteins cited; added tags and fusions are not shown.
UniProt Q00535, whole entry, looked up: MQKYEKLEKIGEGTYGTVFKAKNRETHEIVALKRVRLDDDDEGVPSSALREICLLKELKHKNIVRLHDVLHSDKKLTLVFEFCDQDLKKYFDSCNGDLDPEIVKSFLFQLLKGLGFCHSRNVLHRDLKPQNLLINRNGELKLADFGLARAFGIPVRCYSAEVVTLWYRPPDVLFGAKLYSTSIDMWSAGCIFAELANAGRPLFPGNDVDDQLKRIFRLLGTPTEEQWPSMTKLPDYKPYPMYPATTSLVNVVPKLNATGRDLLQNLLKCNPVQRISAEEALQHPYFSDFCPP
UniProt Q15078, whole entry, looked up: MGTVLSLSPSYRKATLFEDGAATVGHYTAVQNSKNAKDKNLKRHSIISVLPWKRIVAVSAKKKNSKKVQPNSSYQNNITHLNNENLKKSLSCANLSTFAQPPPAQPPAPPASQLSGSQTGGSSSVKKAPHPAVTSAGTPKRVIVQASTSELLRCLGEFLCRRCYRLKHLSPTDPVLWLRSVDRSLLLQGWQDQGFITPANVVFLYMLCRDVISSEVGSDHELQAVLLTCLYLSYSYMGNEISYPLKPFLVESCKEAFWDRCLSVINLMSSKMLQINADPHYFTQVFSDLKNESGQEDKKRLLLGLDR

For this assay, the target named is Cyclin-dependent kinase 5 (Homo sapiens) + Cyclin-dependent kinase 5 activator 1 (Homo sapiens) (UniProt Q00535+Q15078). Description: inhibitors of human CDK5/p35 kinase, primary screen, biochemical, single concentration (AID 488839).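 Also: plate controls were DMSO neutral control for no effect and GW8510 at 10 µM for full effect.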 The conditions noted are these: Recombinant CDK5/p35, ADP-Glo luminescence, 60 min; at 10 µM; stronger effect = higher value. Background: ADP-Glo first removes unused ATP, then detects ADP through luciferase.
`Cc1ccc(OP(=O)(Nc2ccccn2)Oc2ccc(C)cc2)cc1`: the inhibition (in general, the share of the control response that was lost under treatment) is inactive: 3.57%.
